From patent US20070167349A1, “Estrogen cancer therapy” (Cell Therapeutics, Inc., priority 2005, published 2007)

Tests used:
[1] = test system: RAW 264.7 mouse monocyte/macrophage; assay: ^14C-PPX cellular uptake, scintillation counting of ethyl acetate extracted cell layers; details: RAW cultured macrophages
[2] = 24 hours after single i.v. 90 mg/kg PTX equivalent
RAW cell layers = details: 10 nM to 10 μM PPX, 4 hours; co-stained with anti-EEA-1; data not shown

## paclitaxel poliglumex [PPX]
[1]
  mechanism of uptake of intact PPX into the cellular compartment: energy-dependent endocytosis, in a dose- and time-dependent manner
[2]; cells compatible with Kupffer cells
  CT-2D5 positive cells per field, liver: approximately 20 cpf
[2]; cells with macrophage morphology
  CT-2D5 positive cells per field, spleen: 10-15 cpf
[2]; compatible with type II pneumocytes
  CT-2D5 positive cells per field, lung: < 1 cpf
[2]; infiltrating macrophages
  CT-2D5 positive cells per field, tumor capsule: ≈ 2 cpf
RAW cell layers
  localisation of PPX immunostaining: co-localized with an endosomal marker
